# Measurements as given in patent US7825156B2, “Method of treating bipolar depression with a benzamide derivative” (Copharms, priority 2007, dated 2010).
# Tested on: bipolar depression
# Experiment: Case reports: treatment of bipolar depression in patients with bipolar I or II disorder
# Conditions: amisulpride given in such a dose (about 50 to about 300 mg/day)
structure (smiles),measurement,value
"CCN1CCCC1CNC(=O)c1cc(S(=O)(=O)CC)c(N)cc1OC (stereo not shown) [amisulpride, 4-amino-N-[(1-ethylpyrrolidin-2-yl)methyl]-5-(ethylsulfonyl)-2-methoxybenzamide]","deterioration of any other aspect of bipolar disorder, such as treatment-emergent mania",No deterioration
